# scFv variants of Ab-14 (heavy chain) against a SARS-CoV-2 spike peptide

From the AlphaSeq antibody data of Li et al. 2023 (doi:10.1038/s41467-023-39022-2), copy in the FLAb collection.

Target: peptide PDVDLGDISGINAS, taken from heptad repeat 2 (HR2) of SARS-CoV-2 spike.

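This is the validation round: designs drawn from the data on random variants, tested in the same kind of assay. Group labels follow the data file (Ctrl: baseline library sampled from a position-specific scoring matrix, with some repeated check sequences; Rand: our label for a block that the file lists under HC and that is probably the random mutants of the ten best first-round binders; GP: Gaussian process model; GPLM: also part of the Gaussian process libraries; HC: hill climbing; Gen: genetic algorithm; Gibbs: Gibbs sampling; a sequence that several methods proposed may carry one label only). The assay is AlphaSeq: two haploid yeast populations carry antibody and antigen on their surface. The frequency of each diploid, read from paired DNA barcodes, reflects how well the two displayed proteins bind. Scores were corrected for input abundance and mapped to Kd with protein pairs of known affinity run in the same pool. The assay was run in six technical replicates.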

Parent: Ab-14, a human scFv built as VH, the linker GGGGSGGGGSGGGGS, VL. Only the CDRs of the heavy chain vary.
VH: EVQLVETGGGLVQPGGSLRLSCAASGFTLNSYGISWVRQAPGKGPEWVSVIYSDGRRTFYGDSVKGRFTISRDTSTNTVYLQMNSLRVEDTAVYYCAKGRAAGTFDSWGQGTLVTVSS
VL: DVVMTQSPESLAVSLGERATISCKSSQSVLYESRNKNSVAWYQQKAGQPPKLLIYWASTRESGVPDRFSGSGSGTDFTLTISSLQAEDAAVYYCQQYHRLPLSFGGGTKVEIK

Each variant is given by its three heavy chain CDRs, as the data file delimits them; those of the parent are GFTLNSYGIS, VIYSDGRRTFYGDSVK, GRAAGTFDS.
This list holds designs with at most six substitutions.
Kd is apparent (estimated from mating counts) and averaged on the log scale over replicates with a signal. Smaller is tighter.
"no signal" means that the variant was in the library but no mating with the target was seen in any replicate; the authors take this as a sign of poor binding, and no number exists.
Values of this round are not directly comparable with the first-round values of the same sequences.
In the paper, a design with two or fewer of six values counts as a poor binder.
Of ten entries with the parent sequence, four were seen in most replicates (averages 2.2 nM to 240 nM), three in one and three in none, so single entries are noisy.
Background: pairings of all heavy chain designs with three empty control strains gave a value in 1% of cases (median 120 nM, 5th percentile 7.0 nM). Values in that range, when seen in few replicates, are hard to tell from nonspecific mating. For each scFv, signals with the empty controls are counted beside the result.
A sequence that the file lists under several names has all its replicates pooled.

Variant GFDLNSYGIS | VIYSDGRRTFYIDSVK | GREAGTFDT [GP_Gen] showed 1.1 nM (6 of 6 replicates; controls 0 of 18). Variant GFTLNSYGIS | VIYSDGRRTFYEDSVK | GSLAKTFDS [Ctrl] gave no signal (0 of 6 replicates; controls 1 of 18). For GFTLDQYGIS | VIYSDGRRTFYSDSVK | GKAAGTFDS [GPLM_HC], the assay gave 960 pM (6 of 6 replicates; controls 0 of 18). For GFTLNQYGIS | VIYSDGRDTFYGDSVK | GREAGTNDS [Ctrl], the assay gave no signal (0 of 6 replicates; controls 0 of 18). Variant GFDLNSYGIS | VIYSDGRRTFYQDSVK | GREAGTFDS [GPLM_Gen] showed 680 pM (6 of 6 replicates; controls 0 of 18). Variant GFKLNSYGIS | VIYSDGRRTFYGDSVK | GVEAGTFDS [GP_Gen] gave 4.9 nM (6 of 6 replicates; controls 1 of 18).

With GFTLNDYGIS | VIYSCGRRTFYGDSWK | GRAALTFIS [Rand] the result was no signal (0 of 6 replicates; controls 0 of 18). For GFTLNDYGIS | VIYSDGRRTFYGDSVK | GRCAGTFKS [GP_HC], the assay gave no signal (0 of 6 replicates; controls 0 of 18). Variant GFTLNSYGIS | VIYSDGRRTFYGDSVK | GNAALIFDS [Ctrl] showed no signal (0 of 6 replicates; controls 0 of 18). With GFSLNSYGIS | VIYSDGKRTFYGDSVK | GWAAGTFDS [GP_Gibbs] the result was 7.8 nM (6 of 6 replicates; controls 1 of 18). With GFTLNSYGIS | VIYSDGRRTMYGDSNK | GRLIGTFDS [Ctrl] the result was no signal (0 of 6 replicates; controls 0 of 18). For GFTLNSYGIS | VIYSDGRRTFYADSVK | GRAAGTFDL [Ctrl], the assay gave 12 nM (5 of 6 replicates; controls 0 of 18).

For GFTLNSYGIS | VIYSDGFRTFYGDSVK | GRAALTFDS [Ctrl], the assay gave no signal (0 of 6 replicates; controls 0 of 18). Variant GFTLNSYGIS | VDYSDGMRTFYGDSVK | VRAAGTFDS [Ctrl] showed 16 nM (1 of 6 replicates; controls 0 of 18). With GFTLNDYGIS | VIYSDGRRTWYGDSVK | GEAAGTFDS [Ctrl] the result was 7.2 nM (1 of 6 replicates; controls 0 of 18). Variant GFALNSYGIS | VIYSDGRRTFYGGSVK | GRAAGTFKS [Ctrl] gave 33 nM (1 of 6 replicates; controls 0 of 18). With GFTLESYGIS | VIYSDGQRTFYGDSVK | GRVAGTFDS [GP_Gibbs] the result was 5.0 nM (6 of 6 replicates; controls 0 of 18). For CFTLNEYGIS | VIYSDGRRTFYTDSVK | GRFAGTFDS [Rand], the assay gave no signal (0 of 6 replicates; controls 0 of 18).

Variant GFTLNSYGIS | VIYSDGRRTFYQDRTK | GRAAGTFDS [Ctrl] gave no signal (0 of 6 replicates; controls 0 of 18). Variant GFVLNSYGIS | VIYSDGRRTFYGDSVK | GTAAGTFDS [Ctrl] gave 130 nM (6 of 6 replicates; controls 1 of 18). Variant GFDLNSYGIS | VIYSDGRRTAYGDSVK | GQAAGTFDS [Ctrl+GPLM_Gibbs] showed 2.4 nM (8 of 12 replicates; controls 1 of 36). With GFSLNEYGIS | VIYSDGRRTFYTDSVK | GRNAGTFDS [GPLM_HC] the result was 310 pM (6 of 6 replicates; controls 0 of 18). For GFTLNSYGIS | VIYSDGIRTFYKDSVK | GRAAGTFDV [Ctrl], the assay gave 33 nM (1 of 6 replicates; controls 0 of 18). For GFTLNSYGIS | VIYSDGQRTFYGDSVK | GRVAGTFDM [GP_Gibbs], the assay gave 76 nM (2 of 6 replicates; controls 0 of 18).

Variant GFTLNSYGIS | VIYSDGRRTFYGDAVK | GDAAGTFDS [Ctrl] showed 42 nM (3 of 6 replicates; controls 0 of 18). Variant GFDLNSYGIS | VIYADGRRTFYGDSVK | GRAATTFDS [Ctrl] gave no signal (0 of 6 replicates; controls 0 of 18). Variant GFELNSYGIS | VIYSDGRRTFYGDQVK | GREAGTFDS [GP_Gibbs] showed 14 nM (5 of 6 replicates; controls 0 of 18). Variant GFELNSYGIS | VIYADGRRTFYGDRVK | GQAAGTFDV [GP_Gibbs] showed 1.2 nM (6 of 6 replicates; controls 2 of 18). Variant MFSLNEYGIS | VIYSDGRRTFYGDSVK | GRNAGTFDS [GP_Gen] gave 170 nM (1 of 6 replicates; controls 0 of 18). With KFTLNSYGIS | VIYSDGKRTFYSDSVK | GEAAGTFDS [GPLM_Gibbs] the result was 7.4 nM (6 of 6 replicates; controls 0 of 18).

For GFTLNDYGIS | VIYSDKRRTQYIDSVK | GRAAGTFFS [Rand], the assay gave 93 nM (1 of 6 replicates; controls 1 of 18). Variant GFDLNSYGIS | VIYSDGRRTFYADRVK | GNAAGTFDN [GP_Gibbs] showed 110 nM (1 of 6 replicates; controls 0 of 18). With GFTLDSYGIS | VIHSDGRRTFYGDCVK | GRAAGTALS [Rand] the result was no signal (0 of 6 replicates; controls 0 of 18). With GFSLNSYGIS | VIYSDGRRTFYVDSVK | GSTAGTFDS [GPLM_Gen] the result was 1.6 nM (5 of 6 replicates; controls 0 of 18). For GFTLNEYGIS | VIYSDGRRTFYGDSVK | GRAALTFDF [GPLM_HC], the assay gave no signal (0 of 6 replicates; controls 0 of 18). Variant KFTLNDYGIS | VIYSDGRRTFYDDSVK | GREAHTVDS [Ctrl] showed no signal (0 of 6 replicates; controls 0 of 18).

Variant GFELNMYGIS | VIYSDGMRTFYGDSVK | GRTAGTFDS [GP_Gen] gave 90 nM (6 of 6 replicates; controls 1 of 18). Variant GFELNSYGIS | VIYSDGRRTFYVDSVK | GREAGTFDT [GP_Gen] showed 2.6 nM (6 of 6 replicates; controls 0 of 18). With GFTLNMYGIS | VIYSDGRRTFYADKVK | GRAAGTFPS [Ctrl] the result was no signal (0 of 6 replicates; controls 0 of 18). Variant GFTLNSYGIS | VIYADGRRTFYGDEVK | GRAAGTFKS [GP_HC] gave 8.9 nM (2 of 6 replicates; controls 0 of 18). Variant GFDLNSYGIS | VIYSDGRRTFYGDSVK | GQTAGTFDD [GP_Gen] showed 1.3 nM (6 of 6 replicates; controls 0 of 18). For GFELNSYGIS | VIYSDGRRTFYGDSVK | GDAAGTFDT [GP_Gibbs], the assay gave 3.2 nM (6 of 6 replicates; controls 0 of 18).

For GFTLNSYGIS | VIYSDGRRTQYSDSVK | GSAAGTFFS [Ctrl], the assay gave 110 nM (2 of 6 replicates; controls 0 of 18).

Repeated from above, the 6 best binders with a signal in all replicates:

For GFSLNEYGIS | VIYSDGRRTFYTDSVK | GRNAGTFDS [GPLM_HC], the assay gave 310 pM (6 of 6 replicates; controls 0 of 18).
For GFDLNSYGIS | VIYSDGRRTFYQDSVK | GREAGTFDS [GPLM_Gen], the assay gave 680 pM (6 of 6 replicates; controls 0 of 18).
For GFTLDQYGIS | VIYSDGRRTFYSDSVK | GKAAGTFDS [GPLM_HC], the assay gave 960 pM (6 of 6 replicates; controls 0 of 18).
For GFDLNSYGIS | VIYSDGRRTFYIDSVK | GREAGTFDT [GP_Gen], the assay gave 1.1 nM (6 of 6 replicates; controls 0 of 18).
For GFELNSYGIS | VIYADGRRTFYGDRVK | GQAAGTFDV [GP_Gibbs], the assay gave 1.2 nM (6 of 6 replicates; controls 2 of 18).
For GFDLNSYGIS | VIYSDGRRTFYGDSVK | GQTAGTFDD [GP_Gen], the assay gave 1.3 nM (6 of 6 replicates; controls 0 of 18).